Experiment: Microsomal stability (half-life)
Assay type: in vitro ADME, human

- microsome stability: more stable
Structure (SMILES): Fc1cc2c(-c3ccc4ccccc4n3)c[nH]c2c(F)c1F [Compound 13770, 2-(5,6,7-Trifluoro-1H-indol-3-yl)quinoline]

— patent US20240150313A1, “TRI-SUBSTITUTED INDOLE BINDING FUNCTION 3 (BF3) COMPOUNDS AND METHODS FOR THEIR USE” (The University of British Columbia, priority 2021, published 2024)
